# Only a part is listed here, and it is no random draw. The source made the active and inactive calls.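 Rule for the calls: active = calcium signal ratio cut to more than 3 SD under the fully stimulated control mean yet still positive, in both repeats and the primary screen; inactive = the rest.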
# Sequences of proteins named here, by UniProt entry; tags and fusion partners are left off.
# UniProt Q9QUQ5, whole entry: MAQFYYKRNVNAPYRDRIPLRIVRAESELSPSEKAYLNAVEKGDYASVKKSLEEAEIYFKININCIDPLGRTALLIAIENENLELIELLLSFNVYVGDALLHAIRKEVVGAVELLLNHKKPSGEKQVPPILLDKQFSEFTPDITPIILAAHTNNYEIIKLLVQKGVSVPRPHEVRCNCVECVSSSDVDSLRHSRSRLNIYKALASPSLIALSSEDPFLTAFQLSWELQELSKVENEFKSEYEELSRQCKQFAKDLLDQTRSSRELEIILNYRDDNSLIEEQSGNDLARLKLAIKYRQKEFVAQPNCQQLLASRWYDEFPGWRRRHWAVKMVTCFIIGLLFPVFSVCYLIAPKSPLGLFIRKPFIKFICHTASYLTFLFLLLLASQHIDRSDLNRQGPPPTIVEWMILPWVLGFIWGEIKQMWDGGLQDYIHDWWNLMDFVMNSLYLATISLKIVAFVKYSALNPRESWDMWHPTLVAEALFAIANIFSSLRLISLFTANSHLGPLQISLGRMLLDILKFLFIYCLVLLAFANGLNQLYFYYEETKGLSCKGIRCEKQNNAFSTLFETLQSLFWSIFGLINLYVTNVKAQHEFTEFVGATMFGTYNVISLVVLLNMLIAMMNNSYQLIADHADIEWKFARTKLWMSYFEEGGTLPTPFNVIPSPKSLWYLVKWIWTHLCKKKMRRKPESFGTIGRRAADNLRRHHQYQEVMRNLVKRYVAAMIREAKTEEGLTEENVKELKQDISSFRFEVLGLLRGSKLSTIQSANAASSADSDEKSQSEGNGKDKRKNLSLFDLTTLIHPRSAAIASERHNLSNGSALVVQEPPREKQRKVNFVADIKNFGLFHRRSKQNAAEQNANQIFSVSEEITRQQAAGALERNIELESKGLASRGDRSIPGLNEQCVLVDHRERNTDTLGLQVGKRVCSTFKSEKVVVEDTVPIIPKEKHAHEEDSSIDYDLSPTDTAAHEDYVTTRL
# Target: Short transient receptor potential channel 4 (Mus musculus) (UniProt Q9QUQ5)
# Assay: inhibitors of mouse TRPC4 channel, confirmation, cell-based, second round, Fluo4, HEK293 TRPC4beta/mu-opioid, 1 µM (AID 2637);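 for inhibition: percent of integrated ratio relative to wells lacking test compound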
# Conditions: Fluo4 calcium flux, DAMGO, at 1 µM; stronger effect = higher value
row,Structure (SMILES),inhibition
1,CN(C)CCOC(=O)C(O)(c1ccccc1)C1CCCC1 (stereo not drawn),active: 62%
2,CN(C)C1(CNC(=O)c2ccc(Cl)c(S(N)(=O)=O)c2)CCCCC1,inactive
3,CCN(CC)CCCOC(=O)C(O)(c1ccccc1)c1ccccc1,inactive

# Source: PubChem BioAssay AID2637 (Johns Hopkins Ion Channel Center, 2010)
